Data: patent US20230279351A1, “ARTIFICIAL ANTIGEN-SPECIFIC IMMUNOREGULATORY T (AIRT) CELLS” (Seattle Children's Hospital (dba Seattle Children's …, priority 2019, published 2023)

Tested on: split IL-2 CISC (FRB-IL2RB and FKBP-IL2RG) dual-edited human CD4+ T cells
Test: Enrichment of split IL-2 CISC dual-edited CD4+ T cells
Assay type: cell-based
Procedure: FIG. 27 depicts an exemplary timeline of steps for dual AAV editing of CD4+ T cells, expansion with rapalog, and analysis of enriched cells. […] Two days post-editing, cells were analyzed by flow for GFP and mCherry expression, and then expanded in media containing 50 ng/ml human IL-2 or 100 nM rapalog. Flow cytometry to assess enrichment of GFP, mCherry double-positive cells was carried out on days 6, 8, and 10 post-editing.
Panel A depicts a schematic showing AAV HDR donors construct used to introduce of the “split” IL-2 CISC elements for selection of dual-edited cells. CISC components (IL2RG vs. IL2RB) are split between 2 constructs and co-expressed with either HA-FoxP3 cDNA or the islet-specific TCR, T1D4 (AAVs #3240 and #3243 respectively). Each repair template is flanked by identical homology arms that […] the gRNA targeting the TRAC locus. Only edited CD4+ T cells incorporating one copy of each construct are predicted to selectively expand under Rapalog treatment. Panel B depicts a timeline of key steps for dual AAV/RNP-based editing of CD4+ T cells, expansion with Rapalog and analysis of enriched cells. […] Two days post-editing, cells were analyzed by flow for HA-FoxP3 and TCR expression, and then expanded in media containing 50 ng/ml human IL-2 or 100 nM Rapalog. Flow cytometry to assess enrichment of HA-FoxP3, TCR double-positive cells was carried out on days 5 and 8 post-editing. Panel C depicts rapalog enrichment of dual-edited cells. Left panel: Flow plots for HA-FoxP3 and TCR in dual-edited cells following 8 days expansion in IL-2 or Rapalog; Right panel: quantitation of percent HA-FoxP3 / TCR double-positive cells following expansion in IL-2 or Rapalog for 5 and 8 days.
In order to obtain sufficient numbers of cells for therapeutic use, it may be useful, in some contexts, to selectively expand engineered cells in vitro. To do this in the context of dual-edited cells, split IL-2 CISC HDR knock-in constructs were generated for enrichment and selection. […] See e.g., FIG. 108. […]

## IL-2: human IL-2 cytokine, comparison culture condition, 50 ng/ml
#3240 and #3243, day 7, 100 nM AP21967 or 50 ng/mL IL-2, initial 1.6%
  FOXP3/T1D4 double positive cells: 1.47%
Donors R003657 and R003471, AAV #3207 and #3208, 7 days
  enrichment of GFP/mCherry double positive cells: no enrichment
single-locus TRAC split-CISC GFP/mCherry, 100 nM rapalog or IL-2, over 8 days, from 1.4%
  GFP/mCherry double positive cells: no expansion
